The numbers were not newly measured in US5919673A, “One-pot enzymatic sulfation process using 3'-phosphoadenosine-5'-phosphosulfate and recycled phosphorylated adenosine intermediates” (The Scripps Research Institute, priority 1995, dated 1999), which cites them from elsewhere.

The chains behind the UniProt entries cited, without tags or fusion partners. Where a name states a change or a piece, a line headed by the entry shows the natural chain unless it says otherwise.
UniProt Q12657: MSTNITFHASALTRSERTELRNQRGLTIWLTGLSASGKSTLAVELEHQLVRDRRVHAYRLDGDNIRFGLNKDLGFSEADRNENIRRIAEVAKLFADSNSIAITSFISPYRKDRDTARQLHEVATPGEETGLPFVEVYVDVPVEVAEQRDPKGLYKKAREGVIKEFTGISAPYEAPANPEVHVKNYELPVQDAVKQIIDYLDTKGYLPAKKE
UniProt Q12650: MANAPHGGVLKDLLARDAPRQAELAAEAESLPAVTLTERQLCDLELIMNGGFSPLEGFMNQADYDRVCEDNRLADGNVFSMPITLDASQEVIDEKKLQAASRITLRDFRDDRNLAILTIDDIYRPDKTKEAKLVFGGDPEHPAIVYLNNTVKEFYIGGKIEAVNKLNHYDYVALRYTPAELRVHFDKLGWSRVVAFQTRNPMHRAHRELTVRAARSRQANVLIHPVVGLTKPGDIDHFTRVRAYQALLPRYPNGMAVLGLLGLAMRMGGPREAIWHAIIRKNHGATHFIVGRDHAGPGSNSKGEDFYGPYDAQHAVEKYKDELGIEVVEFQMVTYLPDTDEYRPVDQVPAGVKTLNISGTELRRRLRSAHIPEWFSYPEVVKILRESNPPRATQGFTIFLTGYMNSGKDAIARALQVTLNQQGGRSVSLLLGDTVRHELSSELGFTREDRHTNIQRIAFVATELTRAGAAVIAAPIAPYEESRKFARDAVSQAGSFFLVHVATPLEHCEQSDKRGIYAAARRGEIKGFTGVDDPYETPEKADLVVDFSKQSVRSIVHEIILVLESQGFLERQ

What is called Ki is a dissociation constant, usually derived from enzyme kinetics or from competition with a known ligand.

Where only a bound is given, the exact number is not on record here.

In series [1] the target is APS kinase (Penicillium chrysogenum, UniProt Q12657). The note with it: read-out: Ki value of APS.
In series [2] the target is ATP sulfurylase (Penicillium chrysogenum, UniProt Q12650). The conditions noted are these: read-out: Ki (APS, product inhibition).

On to `Nc1ncnc2c1ncn2[C@@H]1O[C@H](COP(=O)(O)OS(=O)(=O)O)[C@@H](O)[C@H]1O` [APS, adenosine-5'-phosphosulfate], for which the Ki in series [1] is 23 µM; in series [2], under 0.25 µM.
